# Biological target: human hemoglobin (human, UniProt P69905 2-142; P68871 2-147)
# By UniProt entry, the sequences of proteins in these tests, tags left out. Residues count along the entry.
# UniProt P69905, 2-142 limits assumed, chain 1 of 2: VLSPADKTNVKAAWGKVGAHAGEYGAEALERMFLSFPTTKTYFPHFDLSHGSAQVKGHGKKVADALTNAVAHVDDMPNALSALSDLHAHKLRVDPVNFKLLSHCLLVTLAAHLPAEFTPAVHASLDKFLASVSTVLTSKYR
# human hemoglobin, UniProt P68871, 2-147 limits assumed, chain 2 of 2: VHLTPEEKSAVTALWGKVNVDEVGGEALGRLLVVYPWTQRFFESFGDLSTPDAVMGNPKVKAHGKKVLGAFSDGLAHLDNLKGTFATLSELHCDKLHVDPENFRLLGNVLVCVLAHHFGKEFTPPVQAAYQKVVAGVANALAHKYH
# Experiment: ELISA (immunoassay of Experiment 3-3), absorbance at 405 nm
row,Binder,binding result
1,"monoclonal antibody ECL2B-3 (antibody, V domains shown) VH: QIQLVQSGPELKKPGETVKISCKASGYTFTNYGMNWVKQAPGKGLEWMGWINTYTGEPTYAGDFMGRSVFSLETSASTAYLQINNLENKDTATYICARSGSPYAMDYWGQGTSVTVS VL: DIALTQSPASLAVSLGQRATISCKASQSVDYDGDSYMNWFQQKPGQPPKLLIYAASNLESGIPGRFSGSGSGTDFTLNIHPVEEEDIATYYCQQSYEDPFTFGSGTILDIKR",no binding
2,"monoclonal antibody ECL2B-2 (antibody, V domains shown, also called intact monoclonal antibody ECL2B-2) VH: DVKLVESGGGLVKPGGSLKLSCAASGFTFSRYTMSWVRQTPEKRLEWVATISSGGSYTYYPDSVKGRFTISRDIAKNTLYLQMSSLKSEDTALYYCTREGGYGAFASWGQGTLVTVS VL: DVLMTQTPLSLPVSLGDQASISCRSSQSIVHSNGNTYLEWYLQKPGQSPKLLIYKVSNRFSGVPDRFSGSGSGTDFTLKINRVAAEDLGVYYCFQGSHVPWTFGGGTKLEIKR",no binding

# From patent US20060030015A1 (published 2006)
